Reference: publication PMC11106675, “Synthesis of 1,4-azaphosphinine nucleosides and evaluation as inhibitors of human cytidine deaminase and APOBEC3A” (Beilstein Journal of Organic Chemistry, 2024)
pKi: −log10 of the molar value.

The chains behind the UniProt entries cited, without tags or fusion partners.
UniProt P32320, whole entry: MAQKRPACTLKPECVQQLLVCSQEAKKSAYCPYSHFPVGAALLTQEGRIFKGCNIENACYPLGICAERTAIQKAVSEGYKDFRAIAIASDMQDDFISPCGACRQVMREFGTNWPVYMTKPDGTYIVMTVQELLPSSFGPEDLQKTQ

Columns and labels:
[1] = target: human cytidine deaminase (hCDA) (Homo sapiens, UniProt P32320); assay: UV kinetic assay of hCDA-catalysed 2'-deoxycytidine deamination; conditions: pH 7.4, 25 °C, substrate dC, competitive inhibition assumed
Description: We monitored the hCDA-catalysed deamination of dC at 286 nm and analysed the kinetic profiles at various inhibitor concentrations using a global regression analysis of the kinetic data using Lambert’s W function. This method provides better estimates for the Michaelis–Menten constant (KM) and maximum velocity (Vmax) than nonlinear regression analysis of the initial rate (V0). […] Then, KM for the substrate and Ki for each inhibitor were calculated, assuming competitive nature of the inhibitors (Table 1).
We assumed that protonation of Va might result in some inhibition of hCDA. […] This means that the pH value of the assay should be close to pH 1.5 to see any meaningful effect of partially protonated compound Va, but hCDA would be denatured at this pH value. By lowering the pH value to 6.0, dZ (IIc) started to lose potency against hCDA (Table 1), which might be a result of protonation of the pyrimidine ring in dZ (IIc). […]
Figure S10. hCDA (27nM) catalysed deamination of 2'-deoxycitidine (⁓1.5 mM) in the absence (plus) and presence of 5 µM 2'-deoxyzebularine (IIc, asterisk) monitored by measuring absorbance at 286 nm over time in 100 mM NaCl, 1 mM TCEP, 50 mM phosphate buffer at 25 °C, at pH 7.4. […]
where mm(t) calculates the current substrate concentration with respect to the time, t. […] A summary of the measured inhibition […]
Uncertainty of Ki was calculated using error-propagation method. […]

[2] = Stability in aqueous solution (NMR samples)
Description: Catalytic hydrogenation is usually used for the removal of benzyl protecting groups. However, standard hydrogenation conditions using 10% Pd/C led to reduction of the C=C double bond in the nucleobase, providing nucleoside 24 (Scheme 3). To circumvent this problem, we used poisoned Pd catalyst (Lindlar’s catalyst, 5% Pd/CaCO3/3% Pb) and obtained the desired nucleoside 18. Individual anomers of nucleosides 18 and 24 were separated on a C18 column using a gradient of CH3CN in H2O. Removal of toluoyl groups was accomplished in aq NH3, providing pure α- and β-nucleoside of Va and Vc, respectively, carrying a negatively charged phosphinic acid group.

## NP1(=O)C=CN(C2C[C@H](O)[C@@H](CO)O2)C(=O)C1 (stereo partly drawn)
[1]
  pKi: 5.10
[2]; basic conditions
  stability under basic conditions: unstable
[2]; pH 7.4
  stability in water: excellent stability
